This passage reports IC50 results from US6635771B2, “N-benzhydryl indole compounds” (Wyeth, priority 2001, dated 2003).

A value given as a limit tells only on which side of the number the result lay.

The experiment has as its target T1, cPLA2 (Homo sapiens, UniProt P47712).
T1 sequence (P47712 1-749): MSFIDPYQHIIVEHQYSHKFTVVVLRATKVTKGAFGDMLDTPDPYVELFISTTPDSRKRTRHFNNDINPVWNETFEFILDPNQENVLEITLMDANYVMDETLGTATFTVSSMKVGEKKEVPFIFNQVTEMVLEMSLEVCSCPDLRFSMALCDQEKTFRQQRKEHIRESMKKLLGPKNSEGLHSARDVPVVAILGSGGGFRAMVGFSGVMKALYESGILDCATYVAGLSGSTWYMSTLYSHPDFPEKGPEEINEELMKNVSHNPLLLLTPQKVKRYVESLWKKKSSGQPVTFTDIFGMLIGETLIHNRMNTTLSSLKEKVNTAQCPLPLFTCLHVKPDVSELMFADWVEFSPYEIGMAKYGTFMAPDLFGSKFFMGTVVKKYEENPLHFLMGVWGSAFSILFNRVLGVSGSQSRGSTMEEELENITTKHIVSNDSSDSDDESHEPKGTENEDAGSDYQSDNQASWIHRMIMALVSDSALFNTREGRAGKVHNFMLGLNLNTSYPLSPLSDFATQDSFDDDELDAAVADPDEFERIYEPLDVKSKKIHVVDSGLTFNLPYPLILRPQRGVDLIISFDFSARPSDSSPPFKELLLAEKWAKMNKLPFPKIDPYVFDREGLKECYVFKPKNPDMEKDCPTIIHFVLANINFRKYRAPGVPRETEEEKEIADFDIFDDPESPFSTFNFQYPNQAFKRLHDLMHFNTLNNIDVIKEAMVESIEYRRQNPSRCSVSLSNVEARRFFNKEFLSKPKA
Put plainly: Coumarine Assay. The conditions noted are these: 60 μM 7-hydroxycoumarinyl 6-heptenoate substrate, 4 μg cPLA2, pH 7.5, fluorescence ex 360 nm / em 460 nm; read-out: Coumarin IC50. The experiment is classed as biochemical.
One may read the IC50 as the concentration at which inhibition is half-maximal. With `O=C(O)c1ccc(OCCc2c(CCNS(=O)(=O)CC3CCCCC3)n(C(c3ccccc3)c3ccccc3)c3ccc(Cl)cc23)cc1` [Example 53, 4-{2-[1-benzhydryl-5-chloro-2-(2-{[(cyclohexylmethyl)sulfonyl]amino}ethyl)-1H-indol-3-yl]ethoxy}benzoic acid], the IC50 came to 370 nM.

With `O=C(O)c1ccc(OCCc2c(CCNS(=O)(=O)CCn3cccn3)n(C(c3ccccc3)c3ccccc3)c3ccc(Cl)cc23)cc1` [Example 88, 4-(2-{1-Benzhydryl-5-chloro-2-[2-(2-pyrazol-1-yl-ethanesulfonylamino)-ethyl]-1H-indol-3-yl}-ethoxy)-benzoic acid], the IC50 was < 7400 nM.

Turning to `O=C(O)c1ccc(OCCc2c(CCNS(=O)(=O)CCN3CCSC3)n(C(c3ccccc3)c3ccccc3)c3ccc(Cl)cc23)cc1` [Example 98, 4-(2-{1-benzhydryl-5-chloro-2-[2-({[2-(1,3-thiazolidin-3-yl)ethyl]sulfonyl}amino)ethyl]-1H-indol-3-yl}ethoxy)benzoic acid], the IC50 worked out at 1100 nM.

Turning to `O=C(O)c1ccc(OCCc2c(CCNS(=O)(=O)CCN3CCSCC3)n(C(c3ccccc3)c3ccccc3)c3ccc(Cl)cc23)cc1` [Example 116, 4-(2-{1-Benzhydryl-5-chloro-2-[2-(2-thiomorpholin-4-yl-ethanesulfonylamino)-ethyl]-1H-indol-3-yl}ethoxy)-benzoic acid], the IC50 worked out at 1200 nM.

Regarding `O=C(O)c1ccc(OCCc2c(CCNS(=O)(=O)CCn3ccnc3)n(C(c3ccccc3)c3ccccc3)c3ccc(Cl)cc23)cc1` [Example 125, 4-(2-{1-Benzhydryl-5-chloro-2-[2-(2-imidazol-1-yl-ethanesulfonylamino)-ethyl]-1H-indol-3-yl}-ethoxy)-benzoic acid], the IC50 was determined as 1400 nM.
